# Yeast mating assay 2: variants of the scFv Ab-95

From the AlphaSeq antibody data of Engelhart et al. 2022 (doi:10.1038/s41597-022-01779-4), copy in the FLAb collection.

Antigen: PDVDLGDISGINAS, a 14-residue peptide of the SARS-CoV-2 spike HR2 region.

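Variants in AAYL52 differ from the parent at up to three CDR positions; double and triple changes were sampled at random. In AlphaSeq, yeast of one mating type display the scFv and yeast of the other type display the target. The frequency of each diploid, read from paired DNA barcodes, reflects how well the two displayed proteins bind. Scores were corrected for input abundance and mapped to Kd with protein pairs of known affinity run in the same pool. The assay was run in three technical replicates.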

The variants keep the heavy chain, the linker and the frameworks of Ab-95 (scFv order VH, a (GGGGS)3 linker, VL).
VH: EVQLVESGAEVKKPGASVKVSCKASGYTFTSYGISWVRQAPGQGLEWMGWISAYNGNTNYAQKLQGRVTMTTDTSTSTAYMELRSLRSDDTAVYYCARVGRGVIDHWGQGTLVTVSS
VL: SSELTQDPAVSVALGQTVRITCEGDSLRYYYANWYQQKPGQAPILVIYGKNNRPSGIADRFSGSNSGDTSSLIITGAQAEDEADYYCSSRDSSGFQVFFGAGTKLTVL

Each variant is given by its three light chain CDRs, as the data file delimits them; those of the parent are EGDSLRYYYAN, GKNNRPS, SSRDSSGFQVF. The read-out is the apparent dissociation constant on a log10 scale (nM): the lower, the stronger. "ND" means that the variant was in the library but no mating with the target was seen in that replicate; the authors take this as a sign of poor binding, and no number exists. Three control strains display no target. For library AAYL52, 28% of the pairings with them gave a signal, with a median of 3.91 and one signal in twenty below 2.90, so weak values seen in few replicates may be background. Also given: how often the same scFv was detected with the empty control strains.

EGDSLRYYYAN, GKDNRPY, SSRDSSGFQVF: 2.54, 2.52, 1.94 (controls 1 of 9).
EGDSLRYYYAN, GKANRPS, SSRDSSGFPNF: 3.25, 2.72, 2.58 (controls 4 of 9).
ERDSSRYYYAN, GKNNDPS, SSRDSSGFQVF: 4.31, 5.56, 3.56 (controls 5 of 9).
EGDSLRYYQAN, GKNNRPS, ASRDSSGFQVY: 1.34, 1.28, 0.86 (controls 2 of 9).
EGDSLSYYYAN, GKNNRPS, SSRDSSLFQVD: 3.26, 3.84, 2.22 (controls 2 of 9).
EGDSLRYYRAN, GKNNRPS, DSRGSSGFQVF: ND, 3.73, ND (controls 3 of 9).
EGDSLRYYYAN, GKNNRES, SSRDSSIFQVF: 2.42, 2.66, 2.35 (controls 4 of 9).
EGDSLRYYYAN, GKNQRPS, SSGDSDGFQVF: 3.69, 3.25, ND (controls 2 of 9).
EGDSLREYYAN, GKNNRPS, SSRASSGFQVF: 2.47, 2.43, 2.22 (controls 2 of 9).
EGDSIRYYYAN, GKNLRPS, SSRDSSYFQVF: ND, 3.86, ND (controls 2 of 9).
EGLSLRYYYHN, GKNNRPC, SSRDSSGFQVF: ND, ND, ND (controls 0 of 9).
EGDSLRYYEAM, GKNNRPS, SSRDSSLFQVF: 3.37, 3.24, 4.46 (controls 6 of 9).
EGDSLRYYYAN, GKNNRPS, STMDSSGFQVG: ND, ND, 2.11 (controls 0 of 9).
EGDSLRYYQAN, GKNNRPS, SSRDESGFTVF: 2.23, 2.08, 1.90 (controls 1 of 9).
EGDSLRYYYNN, GKNNRNS, SSRDSSPFQVF: 4.18, 3.99, ND (controls 2 of 9).
EGDSLVYYYAN, GKNNRPG, SSRDSSGFQVF: ND, ND, ND (controls 2 of 9).
EGDSLRWYYAN, GGYNRPS, SSRDSSGFQVF: 2.76, 2.50, 2.12 (controls 4 of 9).
EGDSLRYYYAY, GKNNRPS, TSRDASGFQVF: ND, ND, 3.84 (controls 2 of 9).
EEDSLRYYYAN, GKNQRPS, SSRDASGFQVF: 3.18, 2.94, 3.65 (controls 2 of 9).
CGDSLRYYYAN, GKNNRPS, KSRDSSGFQVG: 2.80, 2.87, 3.07 (controls 0 of 9).
EGDSLRYYYAW, GKNNRVS, SARDSSGFQVF: 3.73, ND, ND (controls 0 of 9).
EGDSLRYYYAN, GKNCDPS, SSRDSSPFQVF: ND, ND, ND (controls 1 of 9).
EGDSLRYYYAN, GKNNFLS, SSRDSSGFQLF: ND, ND, 4.30 (controls 1 of 9).
EGDSLRYNYAN, GKNWRGS, SSRDSSGFQVF: 1.60, 1.56, 0.91 (controls 5 of 9).
EGDSLRYYYAN, GKNNRWS, ASRDSSAFQVF: 3.77, 3.61, 3.17 (controls 3 of 9).
EGDELRYYYAN, VKNNRPS, VSRDSSGFQVF: 3.42, 3.46, ND (controls 4 of 9).
EGDSLRRYYAN, GKNNAPS, SSRLSSGFQVF: 3.35, ND, ND (controls 5 of 9).
EGDSLQYYGAN, GKNNRPS, SSRDSSGFQLF: 2.34, 2.71, 1.98 (controls 2 of 9).
WGDSLRYYINN, GKNNRPS, SSRDSSGFQVF: ND, ND, ND (controls 4 of 9).
EGDSLRYYYAN, GKNCRPS, SSRDSSQFQVW: 4.36, ND, ND (controls 1 of 9).
LHDSLRYYYAN, GKNNRPS, SSRDSSKFQVF: 1.59, 1.97, 1.44 (controls 3 of 9).
EGDSLRYYYAN, GKNNRMK, SSYDSSGFQVF: ND, 3.72, 3.00 (controls 4 of 9).
EGDSVRYDYAN, GKNNRPS, SSRDASGFQVF: 2.25, 2.83, 2.31 (controls 3 of 9).
EGDSLRRYYAN, GKCNRPS, SSRDSEGFQVF: 3.40, 3.00, ND (controls 1 of 9).
EGDSLRYFYAN, GKNNRPH, SGRDSSGFQVF: 3.33, 3.59, 3.45 (controls 2 of 9).
YGDSLRYYYAN, GDNNRPS, SSRDSCGFQVF: ND, ND, ND (controls 1 of 9).
EGDSLRYYYAP, GKNNRQS, SSRDSSGFQVY: 4.85, 3.85, 4.54 (controls 5 of 9).
EGHSLRYYYAN, GPNNRPS, SSRDSSGMQVF: 2.27, 2.20, 2.09 (controls 2 of 9).
EGDSLANYYAN, GKNNRPS, QSRDSSGFQVF: 2.05, 2.20, 2.34 (controls 2 of 9).
IGDSLRYYYAN, GKNLRPS, SSRDKSGFQVF: 2.47, 2.70, 2.33 (controls 4 of 9).
EGDSLRYYSAN, GKQNRPS, SSHDSSGFQVF: 3.23, 4.66, 4.42 (controls 4 of 9).
EGDSCRYWYAN, GKNNRPS, VSRDSSGFQVF: 4.44, ND, ND (controls 2 of 9).
EGDSLRYYWAN, GKNNRPS, SSRDSCGFQVW: ND, 2.89, ND (controls 2 of 9).

The last 3 entries again:

CDR-L1,CDR-L2,CDR-L3,"log10 Kd, replicates",signal with controls
EGDSLRYYSAN,GKQNRPS,SSHDSSGFQVF,"3.23, 4.66, 4.42",4 of 9
EGDSCRYWYAN,GKNNRPS,VSRDSSGFQVF,"4.44, ND, ND",2 of 9
EGDSLRYYWAN,GKNNRPS,SSRDSCGFQVW,"ND, 2.89, ND",2 of 9